Test results reported in paper PMC12544700, “Identification of a Small Secretoneurin Derivative That Inhibits CaMKIIδ Activity” (Journal of Cellular and Molecular Medicine, 2025).

Amino acid sequences for entries named in this document (tags omitted).
UniProt Q13557, whole entry T287D: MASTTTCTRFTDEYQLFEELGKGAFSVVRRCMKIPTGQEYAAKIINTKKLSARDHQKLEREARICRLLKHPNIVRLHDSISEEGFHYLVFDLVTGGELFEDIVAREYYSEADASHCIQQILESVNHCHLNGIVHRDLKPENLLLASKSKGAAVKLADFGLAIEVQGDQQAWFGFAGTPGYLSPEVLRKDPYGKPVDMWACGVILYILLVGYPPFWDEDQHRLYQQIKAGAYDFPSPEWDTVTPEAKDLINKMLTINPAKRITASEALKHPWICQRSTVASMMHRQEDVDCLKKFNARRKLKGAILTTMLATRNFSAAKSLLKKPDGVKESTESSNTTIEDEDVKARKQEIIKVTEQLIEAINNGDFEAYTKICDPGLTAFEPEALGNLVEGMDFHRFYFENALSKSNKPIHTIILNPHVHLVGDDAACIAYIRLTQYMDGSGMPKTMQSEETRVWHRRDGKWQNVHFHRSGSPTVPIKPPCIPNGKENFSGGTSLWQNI

Experiments:
[1] = biological target: recombinant human His‐CaMKIIδ‐T287D full‐length protein (human) (UniProt Q13557)
[2] = biological target: recombinant His‐CaMKIIδ‐T287D (species not named for the experiment) (not stated (rat or human protein made)) (UniProt P15791); assay: ELISA; His‐CaMKIIδ‐T287D or CaMKIIδ fragment coated, 1 μg/well in PBS overnight at 4°C; blocked with gelatin or BSA; 5 μL of 1 mM biotinylated peptide, 2 h at 37°C; anti‐biotin‐HRP, read at 450 nm

CaMKIIδ‐mediated phosphorylation of Thr17 of biotin‐ahx‐PLN (1–30), immunoblot; reduction compared to SN [1]: 84% | CaMKIIδ‐mediated phosphorylation of Thr17 of biotin‐ahx‐PLN (1–30), immunoblot; reduction compared to no peptide [1]: 86% | fold binding capacity against SN (7–26) [2]: 1.5 fold | fold binding capacity against native SN [2]: 8 fold
Substance: biotinylated SN‐db‐short [SN (7–26, L17F, V20F)] (peptide)
